The values below are quoted from earlier work in patent US20120322745A1, “OPTIMIZED METHOD FOR OBTAINING ACE ACTIVITY INHIBITORY PEPTIDES FROM WHEY, ACE INHIBITORY PEPTIDES AND FOOD COMPRISING THEM” (QUEIZUAR ,S.L., priority 2011, published 2012).

By UniProt entry, the sequences of proteins in these tests, tags left out. Where a name states a change or a piece, a line headed by the entry shows the natural chain unless it says otherwise.
UniProt P02769: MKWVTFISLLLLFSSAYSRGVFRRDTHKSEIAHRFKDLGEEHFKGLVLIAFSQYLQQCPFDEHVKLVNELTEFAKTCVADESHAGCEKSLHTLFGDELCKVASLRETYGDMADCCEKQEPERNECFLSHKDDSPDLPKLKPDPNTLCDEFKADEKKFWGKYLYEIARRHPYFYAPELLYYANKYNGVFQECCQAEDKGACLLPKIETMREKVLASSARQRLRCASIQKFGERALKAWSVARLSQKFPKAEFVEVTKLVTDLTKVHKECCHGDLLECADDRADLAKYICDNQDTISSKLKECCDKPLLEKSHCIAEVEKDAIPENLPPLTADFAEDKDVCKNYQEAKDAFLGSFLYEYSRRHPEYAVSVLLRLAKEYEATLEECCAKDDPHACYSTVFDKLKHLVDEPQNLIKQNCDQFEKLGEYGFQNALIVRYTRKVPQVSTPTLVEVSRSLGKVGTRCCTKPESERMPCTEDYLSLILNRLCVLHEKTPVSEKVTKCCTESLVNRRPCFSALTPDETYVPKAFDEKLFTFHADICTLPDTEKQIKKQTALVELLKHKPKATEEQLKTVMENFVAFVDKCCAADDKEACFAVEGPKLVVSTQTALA

In the data set the target is angiotensin converting enzyme (ACE). To be noted: ACE inhibitory peptides obtained by enzymatic hydrolysis of whey proteins.

By IC50 is commonly meant the concentration at which inhibition is half-maximal. Take “BSA f(221-222): ACE inhibitory peptide, sequence FP, from whey protein hydrolysis with proteinase k (KF; UniProt P02769 245-246, looked up, fragment)”: the IC50 is 315 µM.
